IC50 data for 1 compound are collected here from ChEMBL document CHEMBL1134061, “Synthesis and biological evaluations of condensed pyridine and condensed pyrimidine-based HMG-CoA reductase inhibitors” (Bioorg Med Chem Lett, 2001).

In this test the target is T1, 3-hydroxy-3-methylglutaryl-coenzyme A reductase (Homo sapiens, UniProt P04035).
T1 sequence (P04035 whole entry): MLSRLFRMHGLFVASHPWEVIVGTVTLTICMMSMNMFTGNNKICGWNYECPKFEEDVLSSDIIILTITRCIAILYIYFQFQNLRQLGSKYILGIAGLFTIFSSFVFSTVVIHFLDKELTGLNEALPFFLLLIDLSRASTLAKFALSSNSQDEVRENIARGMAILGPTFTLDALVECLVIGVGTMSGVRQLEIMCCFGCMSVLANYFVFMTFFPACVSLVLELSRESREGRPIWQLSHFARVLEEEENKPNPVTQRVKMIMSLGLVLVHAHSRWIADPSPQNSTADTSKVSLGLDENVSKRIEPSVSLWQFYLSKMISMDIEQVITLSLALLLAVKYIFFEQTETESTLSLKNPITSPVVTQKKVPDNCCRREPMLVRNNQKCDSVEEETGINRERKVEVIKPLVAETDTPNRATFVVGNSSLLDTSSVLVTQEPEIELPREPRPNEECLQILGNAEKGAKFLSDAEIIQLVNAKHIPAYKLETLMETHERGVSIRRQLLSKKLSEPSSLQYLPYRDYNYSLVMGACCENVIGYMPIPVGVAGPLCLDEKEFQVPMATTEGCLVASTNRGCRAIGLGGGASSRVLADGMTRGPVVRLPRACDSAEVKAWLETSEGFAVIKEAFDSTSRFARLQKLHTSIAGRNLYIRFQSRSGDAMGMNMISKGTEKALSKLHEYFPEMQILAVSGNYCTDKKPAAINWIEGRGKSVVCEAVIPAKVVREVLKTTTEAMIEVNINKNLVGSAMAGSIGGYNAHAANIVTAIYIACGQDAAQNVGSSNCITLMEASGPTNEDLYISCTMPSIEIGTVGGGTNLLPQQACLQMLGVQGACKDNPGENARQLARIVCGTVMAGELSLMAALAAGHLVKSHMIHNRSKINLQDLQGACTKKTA
Description: In vitro HMG-CoA reductase inhibitory activity to inhibit cellular steroidgenesis in Hep G2 cells (human hepatoma cell line). In kind it is cell-based, HepG2.

Molecules are shown by their SMILES. pIC50: −log10 of the molar value.

Turning to `CC[C@H](C)C(=O)O[C@H]1C[C@H](O)C=C2C=C[C@H](C)[C@H](CC[C@@H](O)C[C@@H](O)CC(=O)O)[C@H]21` [PRAVASTATIN SODIUM], the pIC50 is 5.86.
